Reference: patent US20060079453A1, “Hla binding peptides and their uses” (priority 2002, published 2006)

Experiments:
Test in all cases: biochemical
Type in all cases: binding
HLA-B*1801 = HLA-B*1801 (Homo sapiens, UniProt P01889, A329T/A93T/A95T/C349S/D201E/D54G/D98Y/E176V/E187T/E204Q/E69T/K202T/Q94N/R155S/R180L/S121R/V306I/Y140S/Y195H/Y33H/Y91S); conditions: B*1801
HLA-B*4001 = HLA-B*4001 (Homo sapiens, UniProt P01889, A65T/A93T/A95T/D138N/D98Y/E176V/E69K/N87E/Q56L/Q94N/R180L/S121R/S35A/S48T/T167S/V36M/W171L/Y33H/Y91S); conditions: B*4001
HLA-B*4002 = HLA-B*4002 (Homo sapiens, UniProt P01889, A65T/A93T/A95T/D138N/D201E/D98Y/E176V/E204Q/E69K/K202T/N87E/Q56L/Q94N/R180L/S48T/Y33H/Y91S); conditions: B*4002
HLA-B*4402 = HLA-B*4402 (Homo sapiens, UniProt P01889, A223V/A65T/A93T/A95T/D201E/D98Y/E176V/E187L/E204Q/E69K/G107R/H137Y/K202T/L105A/L119I/N104T/N87E/Q56L/Q94N/R106L/R155S/R180D/S101N/S121R/S35A/S48T/T118I/V36M/W191S/Y140D/Y91S); conditions: B*4402
HLA-B*4403 = HLA-B*4403 (Homo sapiens, UniProt P01889, A223V/A65T/A93T/A95T/D201E/D98Y/E176V/E187L/E204Q/E69K/G107R/H137Y/K202T/L105A/L119I/N104T/N87E/Q56L/Q94N/R106L/R155S/R180L/S101N/S121R/S35A/S48T/T118I/V36M/W191S/Y140D/Y91S); conditions: B*4403
HLA-B*4501 = HLA-B*4501 (Homo sapiens, UniProt P01889, A329T/A65T/A93T/A95T/C349S/D138N/D201E/D98Y/E176V/E187L/E204Q/E69K/H137Y/K202T/L119W/N87E/Q56L/Q94N/R155S/R180D/S121R/S35A/S48T/V127L/V306I/V36M/W191S/Y140L/Y33H/Y91S); conditions: B*4501

| SMILES | IC50 (HLA-B*1801) | IC50 (HLA-B*4001) | IC50 (HLA-B*4002) | IC50 (HLA-B*4402) | IC50 (HLA-B*4403) | IC50 (HLA-B*4501) |
| --- | --- | --- | --- | --- | --- | --- |
| CC[C@H](C)[C@H](NC(=O)[C@H](CCC(=O)O)NC(=O)[C@@H]1CCCN1C(=O)[C@H](CCC(=O)O)NC(=O)[C@@H](N)CS)C(=O)N[C@@H](CCC(N)=O)C(=O)N[C@@H](CC(N)=O)C(=O)N[C@H](C(=O)N[C@H](C(=O)N[C@@H](Cc1ccc(O)cc1)C(=O)N[C@@H](CC(C)C)C(=O)N[C@@H](Cc1c[nH]c2ccccc12)C(=O)N[C@@H](Cc1c[nH]c2ccccc12)C(=O)O)[C@@H](C)O)[C@@H](C)O | 84 nM | 858 nM | 3170 nM | 7.9 nM | 409 nM | 1240 nM |
| CC[C@H](C)[C@H](NC(=O)[C@H](Cc1ccc(O)cc1)NC(=O)[C@H](CC(C)C)NC(=O)[C@H](Cc1ccc(O)cc1)NC(=O)CNC(=O)[C@@H](NC(=O)[C@@H](NC(=O)[C@H](CCC(=O)O)NC(=O)[C@@H](N)CCC(=O)O)[C@@H](C)CC)[C@@H](C)O)C(=O)N[C@@H](CO)C(=O)N[C@@H](C)C(=O)N[C@@H](Cc1c[nH]c2ccccc12)C(=O)O | 746 nM | 478 nM | 1800 nM | 252 nM | 1490 nM |  |
| CC(C)C[C@H](NC(=O)[C@@H](NC(=O)[C@H](CO)NC(=O)[C@H](CO)NC(=O)[C@H](CO)NC(=O)[C@H](CO)NC(=O)[C@H](C)NC(=O)[C@@H](NC(=O)[C@H](CCC(N)=O)NC(=O)[C@H](CCC(N)=O)NC(=O)[C@H](CCC(=O)O)NC(=O)[C@@H](N)CCC(=O)O)[C@@H](C)O)[C@@H](C)O)C(=O)O | 7260 nM | 166 nM |  |  | 981 nM | 15 nM |
| CC(C)C[C@H](NC(=O)[C@H](C)NC(=O)[C@H](Cc1ccc(O)cc1)NC(=O)[C@H](CC(N)=O)NC(=O)[C@H](CC(=O)O)NC(=O)[C@H](CCC(=O)O)NC(=O)[C@@H](N)Cc1ccccc1)C(=O)N[C@@H](C)C(=O)N[C@H](C(=O)O)C(C)C | 12 nM | 34 nM | 5.1 nM | 13500 nM | 0.17 nM | 131 nM |
| CC[C@H](C)[C@H](NC(=O)[C@H](Cc1ccc(O)cc1)NC(=O)[C@H](CC(C)C)NC(=O)[C@H](Cc1ccc(O)cc1)NC(=O)CNC(=O)[C@@H](NC(=O)[C@@H](NC(=O)[C@H](CCC(=O)O)NC(=O)[C@H](CCC(=O)O)NC(=O)[C@@H](N)CC(C)C)[C@@H](C)CC)[C@@H](C)O)C(=O)N[C@@H](CO)C(=O)N[C@@H](C)C(=O)O | 209 nM | 28 nM | 31 nM |  | 18 nM | 694 nM |
| CC(C)C[C@H](NC(=O)[C@H](CO)NC(=O)[C@H](C)NC(=O)[C@H](CC(N)=O)NC(=O)[C@@H](NC(=O)[C@@H]1CCCN1C(=O)[C@H](CC(C)C)NC(=O)[C@H](Cc1ccc(O)cc1)NC(=O)[C@@H](NC(=O)[C@H](CC(C)C)NC(=O)[C@H](CCC(=O)O)NC(=O)[C@@H](N)CC(C)C)[C@@H](C)O)[C@@H](C)O)C(=O)O | 12 nM | 25 nM | 102 nM | 386 nM | 6.8 nM | 11 nM |
| CSCC[C@H](N)C(=O)N[C@@H](CCC(=O)O)C(=O)N[C@@H](Cc1c[nH]cn1)C(=O)N[C@@H](CC(C)C)C(=O)N[C@@H](CCCNC(=N)N)C(=O)N[C@@H](CCC(=O)O)C(=O)N[C@H](C(=O)N[C@@H](CCCNC(=N)N)C(=O)N[C@@H](C)C(=O)N[C@H](C(=O)N[C@H](C(=O)N[C@@H](CO)C(=O)N[C@@H](C)C(=O)O)[C@@H](C)O)C(C)C)C(C)C | 70 nM | 669 nM |  | 144 nM | 18 nM | 12 nM |
| CC[C@H](C)[C@H](NC(=O)[C@H](CC(C)C)NC(=O)[C@@H](NC(=O)[C@H](Cc1ccc(O)cc1)NC(=O)CNC(=O)[C@H](CCC(N)=O)NC(=O)[C@@H](NC(=O)[C@H](CCC(=O)O)NC(=O)[C@@H](N)CCC(N)=O)C(C)C)C(C)C)C(=O)O | 77 nM |  | 39 nM | 30 nM | 0.5 nM | 96 nM |
| CC[C@H](C)[C@H](NC(=O)[C@H](CCC(=O)O)NC(=O)[C@@H](N)CCCNC(=N)N)C(=O)N1CCC[C@H]1C(=O)N[C@@H](CC(=O)O)C(=O)N[C@@H](CC(C)C)C(=O)N[C@@H](CC(C)C)C(=O)N[C@@H](CCC(=O)O)C(=O)N[C@@H](CCCCN)C(=O)NCC(=O)N[C@@H](CCC(=O)O)C(=O)N[C@@H](CCCNC(=N)N)C(=O)N[C@@H](CC(C)C)C(=O)O | 7640 nM | 40 nM |  | 3050 nM | 16 nM | 2710 nM |
| CC[C@H](C)[C@H](NC(=O)[C@H](CCC(=O)O)NC(=O)[C@H](CCCCN)NC(=O)[C@H](CC(N)=O)NC(=O)[C@H](C)NC(=O)[C@H](CCCCN)NC(=O)[C@@H]1CCCN1C(=O)[C@H](CO)NC(=O)[C@@H](NC(=O)[C@H](CC(N)=O)NC(=O)[C@H](CCC(=O)O)NC(=O)[C@@H](N)CCCNC(=N)N)[C@@H](C)O)C(=O)N[C@@H](CC(C)C)C(=O)O | 7750 nM | 3.7 nM | 77 nM | > 2540 nM | 3.9 nM | 1510 nM |
| CSCC[C@H](NC(=O)[C@H](CCC(=O)O)NC(=O)[C@H](C)NC(=O)[C@H](CCCCN)NC(=O)[C@@H](NC(=O)[C@@H](NC(=O)[C@@H]1CCCN1C(=O)[C@H](CCC(=O)O)NC(=O)[C@@H](N)CCCNC(=N)N)C(C)C)[C@@H](C)O)C(=O)N[C@@H](CC(C)C)C(=O)N[C@@H](CCC(=O)O)C(=O)N[C@@H](CO)C(=O)N[C@H](C(=O)O)C(C)C | 5530 nM |  | 411 nM |  | 21 nM | 1510 nM |
| CSCC[C@H](NC(=O)[C@H](CCCNC(=N)N)NC(=O)[C@H](CO)NC(=O)[C@H](Cc1ccccc1)NC(=O)[C@H](CCC(=O)O)NC(=O)[C@@H](N)CO)C(=O)N[C@@H](C)C(=O)N[C@@H](CCCNC(=N)N)C(=O)N[C@@H](CC(=O)O)C(=O)N1CCC[C@H]1C(=O)N[C@@H](CCC(N)=O)C(=O)N[C@@H](CCCNC(=N)N)C(=O)N[C@@H](Cc1ccccc1)C(=O)O | 61 nM | 350 nM | 57 nM | 23 nM | 12 nM |  |
| CC(C)C[C@H](NC(=O)[C@H](CC(=O)O)NC(=O)CNC(=O)[C@H](CC(=O)O)NC(=O)[C@H](Cc1ccccc1)NC(=O)[C@@H](NC(=O)[C@H](CC(=O)O)NC(=O)[C@H](CO)NC(=O)CNC(=O)[C@H](C)NC(=O)CNC(=O)[C@H](CCC(=O)O)NC(=O)[C@@H](N)CO)C(C)C)C(=O)O | 5170 nM | 45 nM |  | 1300 nM | 711 nM | 2460 nM |
| CC[C@H](C)[C@H](NC(=O)[C@@H]1CCCN1C(=O)[C@@H](NC(=O)[C@@H](NC(=O)[C@H](CCC(=O)O)NC(=O)[C@@H](N)C(C)C)C(C)C)C(C)C)C(=O)N[C@@H](CO)C(=O)N[C@@H](Cc1c[nH]cn1)C(=O)N[C@@H](CC(C)C)C(=O)N[C@@H](Cc1ccc(O)cc1)C(=O)O | 20 nM |  |  |  | 1230 nM | 4880 nM |
| CC[C@H](C)[C@H](NC(=O)[C@H](Cc1ccc(O)cc1)NC(=O)[C@H](CC(C)C)NC(=O)[C@H](Cc1c[nH]cn1)NC(=O)[C@H](CO)NC(=O)[C@@H](NC(=O)[C@@H]1CCCN1C(=O)[C@@H](NC(=O)[C@@H](NC(=O)[C@H](CCC(=O)O)NC(=O)[C@@H](N)C(C)C)C(C)C)C(C)C)[C@@H](C)CC)C(=O)N[C@@H](CC(C)C)C(=O)N[C@H](C(=O)O)C(C)C | 92 nM | 93 nM | 47 nM | 270 nM | 51 nM |  |
